The record followed here is PubChem BioAssay AID493005 (National Center for Advancing Translational Sciences (NCATS), 2010).

By UniProt entry, the sequences of proteins in these tests, tags left out.
UniProt Q99816, whole entry: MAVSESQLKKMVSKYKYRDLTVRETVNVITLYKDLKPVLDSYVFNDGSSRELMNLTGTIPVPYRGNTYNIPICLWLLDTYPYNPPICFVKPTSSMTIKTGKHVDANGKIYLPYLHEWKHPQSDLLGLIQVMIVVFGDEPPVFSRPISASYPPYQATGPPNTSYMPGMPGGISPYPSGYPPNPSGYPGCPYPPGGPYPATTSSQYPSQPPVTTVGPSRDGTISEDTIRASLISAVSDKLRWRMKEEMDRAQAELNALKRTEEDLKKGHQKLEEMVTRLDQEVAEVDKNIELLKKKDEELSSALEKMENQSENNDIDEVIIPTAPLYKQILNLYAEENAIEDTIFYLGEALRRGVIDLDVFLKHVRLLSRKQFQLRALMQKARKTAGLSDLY

SMILES strings stand for the structures. The list shows a part of the results, in another mix than the full data. Some results for these compounds are left out of this collection, so the calls shown say nothing about other tests. Active and inactive are the calls of the source. The call rests on the fitted dose curve; in most records, active means well fitted inhibition curve with a large enough effect in the main read-out, with a control signal flat (not every such curve was filed as active); inconclusive means small, poorly fitted or top-dose-only effect, or effect the other way, or a change in a side signal; inactive means no such curve, though single readings can be large or run the other way.

The target in the assay is Tumor susceptibility gene 101 protein (Homo sapiens) (UniProt Q99816). Put plainly: qHTS Assay for Iinhibitors of HIV-1 Budding by Blocking the Interaction of PTAP/TSG101. Further: % of control where 0% means no effect. To be noted: Fluorescence polarization, FITC-PTAP peptide / Tsg101 binding; at 115 µM (top of the series). From the text: NIH Molecular Libraries Probe Production Network [MLPCN] NIH Chemical Genomics Center [NCGC] MLPCN Grant: 1 R03 MH087464-01A1 PI Name: Dr. Eric Freed, NCI NCGC Assay Overview: Stages of the HIV-1 replication cycle, specifically virus assembly and release, provide underexploited targets for the development of novel antiviral inhibitors. The late stages of HIV-1 replication are mediated by the Gag precursor protein, Pr55Gag. Expression of Pr55Gag is both necessary and sufficient for the production of virus-like particles from Gag-expressing cells. The Gag protein hijacks key host proteins involved in endocytic machinery of the host cell to promote endosomal processing and viral budding. The budding process requires a direct interaction between a […] (PTAP) motif in the p6 domain of Gag and the cellular endosomal sorting protein known as Tsg101. In this way, the Gag PTAP motif promotes the host cells to recruit viral particles to the plasma membrane where the new viral particles are released, effectively turning the host cells into viral factories. A fluorescence anisotropy assay has been developed to quantitatively measure the PTAP-Tsg101 interaction which can be used to screen for inhibitors of this interaction.
NCGC Assay Protocol Summary: Two uL of the Tsg101 binding domain in buffer (10 mM HEPES pH 7.5; 0.15 M NaCl, 0.01% Tween 20; 3 mM EDTA;0.1 mM TCEP) was dispensed into Greiner black MB 1536-well plates (final concentration 10 uM). Then, 23 nL of compounds or DMSO were delivered to each well using a pin tool. Finally, 2 uL of a FITC-labeled peptide containing the PTAP motif (1) in the same buffer was dispensed (50 nM final concentration) and the binding was allowed to proceed for 20 min. at r.t. Fluorescent polarization was determined using FITC excitation and polarized emission filters on a Perkin Elmer Viewlux. Keywords: Tsg101, PTAP, Gag, HIV, fluorescent polarization, MLSMR, MLPCN, NIH Roadmap, qHTS, NCGC
As to `CN(C)c1cccc(C(=O)NCC2(N(C)C)CCCCC2)c1`, the activity change, negative = inhibition was inactive: -4.93%.
With `O=C(OCCN1CCCC1)C(O)(c1ccccc1)c1ccccc1`, the activity change, negative = inhibition is inactive: -3.49%.
For `CC(C)Oc1ccc(C(=O)NCC2(N(C)C)CCCCC2)cc1`, the activity change, negative = inhibition was inactive: -6.01%.
As for `COc1ccc(Br)c(C(=O)NCC2(N3CCCCC3)CCCCC2)c1`, the activity change, negative = inhibition was inactive: -2.4%.
Take `O=C(OC1CN2CCC1CC2)C(CO)(c1ccccc1)c1ccccc1` (stereo not given): the activity change, negative = inhibition is inactive: -0.167%.
On to `O=C(NCC1(N2CCCCC2)CCCCC1)c1cccc(Cl)c1`, for which the activity change, negative = inhibition is inactive: -2.52%.
`COc1ccc(Cl)cc1C(=O)NCC1(N(C)C)CCCCC1`: the activity change, negative = inhibition was inactive: -0.591%.
The same measure for `COc1cccc(C(=O)NCC2(N3CCCCC3)CCCCC2)c1`: inactive: 0.856%; for `COc1cc(C(=O)NCC2(N(C)C)CCCCC2)c([N+](=O)[O-])cc1OC`: inactive: 3.93%; for `CN(C)C1(CNC(=O)c2ccc(Br)cc2)CCCCC1`: inactive: -1.37%.
For `O=C(NCC1(N2CCCCC2)CCCCC1)c1cccc(Br)c1`, the activity change, negative = inhibition was inactive: 0.374%.
With `Cc1cc(C(=O)NCC2(N3CCCCC3)CCCCC2)ccc1[N+](=O)[O-]`, the activity change, negative = inhibition is inactive: 0.204%.
Consider `CCN1CCCC(OC(=O)C2(O)c3ccccc3C=Cc3ccccc32)C1` (stereo not given), for which the activity change, negative = inhibition was inactive: -9.68%.
For the molecule `COc1ccc(C(=O)NCC2(N(C)C)CCCCC2)cc1`, the activity change, negative = inhibition is inactive: 0.561%.
`O=C(NCC1(N2CCCCC2)CCCCC1)c1cc(F)c(F)cc1Cl`: the activity change, negative = inhibition is inactive: -0.547%.
With `C=CCN1CCN(CCOC(=O)C(O)(c2ccccc2)c2ccccc2)CC1`, the activity change, negative = inhibition is inactive: -2.83%.
With `CN(C)C1CCCC1OC(=O)C(O)(c1ccccc1)c1ccccc1` (stereo not given), the activity change, negative = inhibition is inactive: -4.32%.
The same measure for `CN(C)c1ccc(C(=O)NCC2(N(C)C)CCCCC2)cc1`: inactive: -0.246%; for `Cc1ccccc1C(=O)NCC1(N2CCCCC2)CCCCC1`: inactive: -1.67%; for `Cc1ccc(C(=O)NCC2(N3CCCCC3)CCCCC2)cc1`: inactive: 1.99%.
`CC(C)N1C(=O)CC2(CCN(CCOC(=O)C(O)(c3ccccc3)c3ccccc3)CC2)C1=O`: the activity change, negative = inhibition is inactive: -3.75%.
The same measure for `COc1cc(SC)ccc1C(=O)NCC1(N(C)C)CCCCC1`: inactive: -1.17%; for `CCN(CC)CC(C)C(C)OC(=O)C(O)(c1ccccc1)c1ccccc1` (stereo not given): inactive: -4.78%.
For `CN1[C@@H]2CC[C@H]1CC(OC(=O)C(O)(c1ccccc1)c1ccccc1)C2` (stereo not given in full), the activity change, negative = inhibition was inactive: 0.469%.
Regarding `O=C(NCC1(N2CCCCC2)CCCCC1)c1cc([N+](=O)[O-])ccc1Cl`, the activity change, negative = inhibition is inactive: -5.95%.
